What all share (settings): both partners purified
Assay [1] has as its target T1, Kap95 (UniProt Q06142 1-861).
T1 construct: Kap95, a karyopherin transport factor; also called Kap95 without the GST domain
T1 sequence (looked up): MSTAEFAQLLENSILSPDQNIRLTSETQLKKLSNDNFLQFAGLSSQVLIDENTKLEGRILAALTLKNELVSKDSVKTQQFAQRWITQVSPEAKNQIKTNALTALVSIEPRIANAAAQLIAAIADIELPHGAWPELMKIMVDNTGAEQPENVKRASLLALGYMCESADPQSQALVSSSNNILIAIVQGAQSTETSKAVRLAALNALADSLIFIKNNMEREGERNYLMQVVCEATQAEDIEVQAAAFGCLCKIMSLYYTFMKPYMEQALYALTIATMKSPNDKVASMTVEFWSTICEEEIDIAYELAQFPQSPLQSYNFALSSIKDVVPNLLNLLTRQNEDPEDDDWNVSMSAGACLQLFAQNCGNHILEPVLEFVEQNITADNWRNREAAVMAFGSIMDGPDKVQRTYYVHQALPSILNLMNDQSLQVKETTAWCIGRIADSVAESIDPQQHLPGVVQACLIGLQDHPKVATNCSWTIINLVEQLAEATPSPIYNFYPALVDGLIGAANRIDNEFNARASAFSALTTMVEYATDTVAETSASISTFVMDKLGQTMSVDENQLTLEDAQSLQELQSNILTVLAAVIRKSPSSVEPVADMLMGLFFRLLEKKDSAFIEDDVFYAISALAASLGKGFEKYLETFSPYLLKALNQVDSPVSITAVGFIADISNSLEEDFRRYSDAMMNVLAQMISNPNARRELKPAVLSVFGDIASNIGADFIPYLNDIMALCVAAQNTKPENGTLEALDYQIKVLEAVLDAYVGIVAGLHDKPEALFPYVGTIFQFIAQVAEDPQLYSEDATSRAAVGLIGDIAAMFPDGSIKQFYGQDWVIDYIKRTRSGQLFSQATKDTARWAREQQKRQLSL
Nature of the assay: SPR; FSFG6 immobilised via C-terminal Cys (GLC chip), low density 415 RU; association 120 s; 100 ul/min, TBT-PVP, 25 C; Langmuir isotherm analysis. For orientation: SPR reads the build-up and loss of mass on a sensor chip optically.

For assay [2], the target named is T1, Kap95. The experiment in a line: SPR; FSFG6 immobilised via C-terminal Cys (GLC chip), medium density 550 RU; association 30 s; 100 ul/min, TBT-PVP, 25 C; Langmuir isotherm analysis.
Assay [3] addresses T1, Kap95. Nature of the assay: SPR; FSFG6 immobilised via C-terminal Cys (GLC chip), medium density 550 RU; association 60 s; 100 ul/min, TBT-PVP, 25 C; Langmuir isotherm analysis.
Assay [4] deals with T1, Kap95. The experiment in a line: SPR; FSFG6 immobilised via C-terminal Cys (GLC chip), low density 415 RU; association 30 s; 100 ul/min, TBT-PVP, 25 C; fit: one-to-one plus mass transport limitation model.
The target of assay [5] is T1, Kap95. The experiment in a line: SPR; FSFG6 immobilised via C-terminal Cys (GLC chip), high density 791 RU; association 15 s; 100 ul/min, TBT-PVP, 25 C; fit: one-to-one plus mass transport limitation model.
Assay [6] addresses T1, Kap95. The experiment in a line: SPR; FSFG6 immobilised via C-terminal Cys (GLC chip), high density 791 RU; association 120 s; 100 ul/min, TBT-PVP, 25 C; fit: one-to-one plus mass transport limitation model.
In assay [7] the target is T1, Kap95. Nature of the assay: SPR; FSFG6 immobilised via C-terminal Cys (GLC chip), medium density 550 RU; association 15 s; 100 ul/min, TBT-PVP, 25 C; fit: one-to-one plus mass transport limitation model.
Assay [8] deals with T1, Kap95. Nature of the assay: SPR; FSFG6 immobilised via C-terminal Cys (GLC chip), medium density 550 RU; association 120 s; 100 ul/min, TBT-PVP, 25 C; fit: one-to-one plus mass transport limitation model.

B1: FSFG6-Cys-His6 (domain or fragment)
chain: not shown
modifications: conjugated to the sensor surface through the C-terminal cysteine (maleimide)
notes: Segment of Nsp1FG (S. cerevisiae Nsp1) with six repeats of the FxFG-type region, followed by an added Cys, LE and His6
The Kd is the constant that tells how readily two partners part at equilibrium. In general, koff refers to the first-order rate constant of dissociation. By kon is commonly meant a measure of how fast the partners come together. In the case of B1, the Kd with Kap95 [1] came out at 41.9 nM; with Kap95 [2], 63.5 nM; in the assay with Kap95 [3], 30.8 nM; in the assay with Kap95 [4], 1.05 nM; with Kap95 [5], 9.36 nM; with Kap95 [6] it was 1.65 nM. Further, the Kd with Kap95 [7] turned out to be 1.82 nM; with Kap95 [8], 3.74 nM. For the same molecule, the koff was 0.00449 s⁻¹ with Kap95 [4]; 0.00335 s⁻¹ in the assay with Kap95 [5]; 0.00275 s⁻¹ with Kap95 [6]; 0.00465 s⁻¹ with Kap95 [7]; 0.00318 s⁻¹ with Kap95 [8]. Besides, the kon with Kap95 [4] was found to be 4.29e+06 M⁻¹ s⁻¹; in the assay with Kap95 [5] it was 358000 M⁻¹ s⁻¹; with Kap95 [6], 1.66e+06 M⁻¹ s⁻¹; with Kap95 [7] it was 2.56e+06 M⁻¹ s⁻¹; in the assay with Kap95 [8] it was 851000 M⁻¹ s⁻¹.

For the origin of these results see paper PMC6553764 (PLoS ONE, 2019).
